Earlier results, collected in patent publication US6355675B1, “Emulsifiable concentrate of a water-insoluble fungicide” (ISP Investments Inc., priority 2001, dated 2002).

Methoxyimino-{2-[3-(trifluoromethyl-phenyl)-ethylideneamino-oxymethyl]-phenyl}-acetic acid methyl ester [CGA 279202]
water solubility: 0.6 ppm
